The source of these data is US20090208455A1, “Method for Treating Polyglutamine Expansion Neurodegenerative Diseases” (INSERM (Institut National de la Sante et de la Recherche …, priority 2006, published 2009).

Common to all, as to format: cell-based
One data set concerns ATXN7. Nature of the data set: Western blot of ATXN7 levels in β-INF-treated COS-7 cells. To be noted: 2000 UI/ml. As for the experimental part:
(§1) Cell culture, transfections, MG132, INF and cadmium treatments: COS-7 cells were maintained in DMEM (Invitrogen) supplemented with 5% FBS, and penicillin-streptomycin (100 UI/ml; 100 μg/ml). Cell lines were transfected with Lipofectamine-PLUS reagents (Invitrogen) as prescribed. Unless otherwise specified, cells were harvested or analyzed by immunofluorescence 40-45 h post-transfection. β-INF. Recombinant human Interferon beta (Hu-IFN-b) is obtained from human fibroblast mRNA expressed in E. Coli. Its molecular weight is approximately 20 kDa. Recombinant human Interferon beta was supplied as a solution at 1×10^6 units/ml in PBS (phosphate buffered saline) containing 0.1% BSA (bovine serum albumin) and 10% glycerol. It was purchased from Sigma-Aldrich. Recombinant human Interferon beta (2000 UI/ml) was added to the culture medium after plating and during transfection. Cadmium chloride (Cadmium chloride hemi pentahydrate, Sigma Aldrich) (from 0.25 μM to 2 μM) was added during transfection. For proteasome inhibition, 5 μM MG132 was applied for 12 h, 25 h post-transfection. Cultures of post-mitotic neurons were prepared from the cortex of embryonic day 16 Wistar rats. Cells were extracted from the embryos and cultured with 1 μM MK801. Glial cell proliferation was stopped by adding 1 μM cytosine arabinoside after 3 h. Primary cultures of cortical neurons were transfected 96 h after plating using Lipofectamine 2000 reagent (Invitrogen) according to the manufacturer's instructions.
Western blot and filter retardation assay: Cells were harvested in PBS, pelleted and lysed 30 min on ice in lysis buffer containing 50 mM Tris pH 8.8, 100 mM NaCl, 5 mM MgCl2, 0.5% NP40, 1 mM EDTA and 250 UI/ml benzonase (Merck) supplemented with a cocktail of protease inhibitors (Complete and Pefabloc, Roche). Total extracts were centrifuged at 13000 rpm for 10 min at 4° C. to separate soluble proteins from aggregates and membranes. Supernatants (30 μg protein) were analyzed by Western blot. […] Protein concentrations (supernatant and pellet) were determined by Bio-Rad assay. […]

A further data set has as its system mutant ATXN7 aggregates. Briefly: Filter retardation assay of SDS-insoluble material in COS-7 cells. To be noted: β-INF-treated COS-7 cells. As for the experimental part:
Cell culture, transfections, MG132, INF and cadmium treatments: COS-7 cells were maintained in DMEM (Invitrogen) supplemented with 5% FBS, and penicillin-streptomycin (100 UI/ml; 100 μg/ml). Cell lines were transfected with Lipofectamine-PLUS reagents (Invitrogen) as prescribed. […] Recombinant human Interferon beta (Hu-IFN-b) is obtained from human fibroblast mRNA expressed in E. Coli. Its molecular weight is approximately 20 kDa. Recombinant human Interferon beta was supplied as a solution at 1×10^6 units/ml in PBS (phosphate buffered saline) containing 0.1% BSA (bovine serum albumin) and 10% glycerol. It was purchased from Sigma-Aldrich. Recombinant human Interferon beta (2000 UI/ml) was added to the culture medium after plating and during transfection. Cadmium chloride (Cadmium chloride hemi pentahydrate, Sigma Aldrich) (from 0.25 μM to 2 μM) was added during transfection. […]
Western blot and filter retardation assay: Cells were harvested in PBS, pelleted and lysed 30 min on ice in lysis buffer containing 50 mM Tris pH 8.8, 100 mM NaCl, 5 mM MgCl2, 0.5% NP40, 1 mM EDTA and 250 UI/ml benzonase (Merck) supplemented with a cocktail of protease inhibitors (Complete and Pefabloc, Roche). […] Supernatants (30 μg protein) were analyzed by Western blot. […] Protein concentrations (supernatant and pellet) were determined by Bio-Rad assay. […]

A further data set relates to PML. Briefly: β-INF induction of PML expression and PML bodies in COS-7 cells (immunofluorescence, RT-PCR, Western blot). As to conditions: 2000 UI/ml. As to the method:
RNA preparation and semi-quantitative RT-PCR: RNA was extracted from whole cell lysates of transfected or untransfected COS-7 cells, using the RNAeasy kit (Quiagen), and cDNAs were synthesized (ThermoScript RT-PCR System, Invitrogen) according to the manufacturers' instructions. PCR was performed using primers specific for the genes of interest. Primers used for specific detection of PML IV were located in exon 8, and the reverse primer was designed to anneal only PML IV mRNAs. The cyclophilin A gene was used as the reference.
as §1
Western blot and filter retardation assay: Cells were harvested in PBS, pelleted and lysed 30 min on ice in lysis buffer containing 50 mM Tris pH 8.8, 100 mM NaCl, 5 mM MgCl2, 0.5% NP40, 1 mM EDTA and 250 UI/ml benzonase (Merck) supplemented with a cocktail of protease inhibitors (Complete and Pefabloc, Roche). Total extracts were centrifuged at 13000 rpm for 10 min at 4° C. to separate soluble proteins from aggregates and membranes. Supernatants (30 μg protein) were analyzed by Western blot. Pellets were washed with PBS and further incubated 30 min on ice in a pellet buffer containing 20 mM Tris pH 8.0, 15 mM MgCl2 and 250 UI/ml benzonase. Protein concentrations (supernatant and pellet) were determined by Bio-Rad assay. […]
A general note: In western blotting, separated proteins are transferred to a membrane and probed.

Entries after “also recorded” stand apart in the source; their conditions may differ.

As for “β-INF: Recombinant human Interferon beta obtained from human fibroblast mRNA expressed in E. Coli, approximately 20 kDa, purchased from Sigma-Aldrich”, in the data set with ATXN7, the “amount of overexpressed soluble mutant ATXN7 FL-74Q” value is reported as “decreases”, the “amount of overexpressed soluble wild-type ATXN7 FL-10Q” value is reported as “decreases” and the “level of endogenous wild type ATXN7” value was “no effect; also recorded: does not affect”. In the data set on mutant ATXN7 aggregates, the “insoluble PML-containing material” value is recorded as “detected; also recorded: appears”. The “insoluble mutant ATXN7 (aggregates)” value in the data set with mutant ATXN7 aggregates (2000 UI/ml) was “disappear”. Further, the “PML bodies in cells expressing mutant ATXN7” value with PML (COS-7 cells, immunofluorescence) was “formation of large strongly immunoreactive PML bodies that colocalized with mutant ATXN7”. Besides, in the data set with PML (Western blot, COS-7 cells expressing endogenous ATXN7, FL-10Q or FL-74Q), the “levels of PML isoforms” value was “increased the levels of several PML isoforms; also recorded: induces the expression of multiple isoforms of PML”. Also, the “size and number of PML bodies” value in the data set with PML (non-transfected COS-7 cells, immunofluorescence) is “increased the size and number of PML bodies”. Further, the “expression of endogenous PML IV mRNA” value in the data set on PML (semi-quantitative RT-PCR with PML IV specific primers, COS-7 cells) was “induced; also recorded: increases”.
